In assay [1] the target is T1, HCV NS3 protease type 1b/NS4A cofactor peptide (Hepatitis C virus genotype 1b, UniProt P26663).
T1 construct: recombinant HCV NS3 protease (amino acid 1027 to 1206) was cloned; made in house; host or cells: E. coli BL21(DE3)pLysS
Description: biochemical. Set-up: species or system hepatitis C virus (HCV) genotype 1b. The source says: a) Cloning, expression and purification of the recombinant HCV NS3 protease type lb
Serum from an HCV-infected patient was obtained through an external collaboration (Bernard Willems MD, Hopital St-Luc, Montreal, Canada and Dr. Donald Murphy, Laboratoire de Sante Publique du Quebec, Ste-Anne de Bellevue, Canada). An engineered full-length cDNA template of the HCV genome was constructed from DNA fragments obtained by reverse transcription-PCR (RT-PCR) of serum RNA and using specific primers selected on the basis of homology between other genotype lb strains. […] A DNA fragment encoding the polyprotein precursor (NS3/NS4A/NS4B/NS5A/NS5B) was generated by PCR and introduced into eucaryotic expression vectors.
The NS3 protease expression in E. coli BL21(DE3)pLysS was induced by incubation with 1 mM IPTG for 3 h at 22° C. […] The cells were resuspended in lysis buffer (3.0 mL/g) consisting of 25 mM sodium phosphate, pH 7.5, 10% glycerol (v/v), 1 mM EDTA, 0.01% NP-40 and stored at -80° C. Cells were thawed and homogenized following the addition of 5 mM DTT. Magnesium chloride and DNase were then added to the homogenate at final concentrations of 20 mM and 20 μg/mL respectively. After a 25 min incubation at 4° C., the homogenate was sonicated and centrifuged at 15000× g for 30 min at 4° C. The pH of the supernatant was then adjusted to 6.5 using a 1M sodium phosphate solution.
Briefly, the supernatant from the bacterial extract was loaded on a SP HiTrap column (Pharmacia) previously equilibrated at a flow rate of 2 mL/min in buffer A (50 mM sodium phosphate, pH 6.5, 10% glycerol, 1 mM EDTA, 5 mM DTT, 0.01% NP-40). The column was then washed with buffer A containing 0.15 M NaCl and the protease eluted by applying 10 column volumes of a linear 0.15 to 0.3 M NaCl gradient. NS3 protease-containing fractions were pooled and diluted to a final NaCl concentration of 0.1 M. The enzyme was further purified on a HiTrap Heparin column (Pharmacia) equilibrated in buffer B (25 mM sodium phosphate, pH 7.5, 10% glycerol, 5 mM DTT, 0.01% NP-40). The sample was loaded at a flow rate of 3 mL/min. The column was then washed with buffer B containing 0.15 M NaCl at a flow rate of 1.5 mL/min. Two step washes were performed in the presence of buffer B containing 0.3 or 1M NaCl. […] Finally, the NS3 protease-containing fractions were applied on a Superdex 75 HiLoad 16/60 column (Pharmacia) equilibrated in buffer B containing 0.3 M NaCl.
The enzyme was stored at -80° C. and was thawed on ice and diluted just prior to use.
Recombinant HCV NS3 Protease/NS4A Cofactor Peptide Radiometric Assay
The enzyme was stored at -80° C., thawed on ice and diluted just prior to use in the assay buffer containing the NS4A cofactor peptide. […]

Protein sequences, listed by entry. Tags and fused reporters are not part of them. Residues count along the entry.
UniProt P26663, 1027-1206: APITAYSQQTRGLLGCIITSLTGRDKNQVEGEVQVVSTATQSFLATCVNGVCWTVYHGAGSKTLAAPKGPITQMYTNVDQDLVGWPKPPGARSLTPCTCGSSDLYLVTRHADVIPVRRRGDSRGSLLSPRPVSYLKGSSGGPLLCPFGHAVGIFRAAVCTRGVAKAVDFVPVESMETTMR
UniProt P00772, 27-266: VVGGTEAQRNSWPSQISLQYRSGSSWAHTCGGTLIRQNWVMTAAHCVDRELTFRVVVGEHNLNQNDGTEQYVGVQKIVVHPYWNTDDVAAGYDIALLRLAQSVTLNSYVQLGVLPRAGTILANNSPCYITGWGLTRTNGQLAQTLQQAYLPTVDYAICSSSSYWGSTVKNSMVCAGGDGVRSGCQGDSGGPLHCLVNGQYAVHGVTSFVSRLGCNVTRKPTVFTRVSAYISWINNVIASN

Assay [2] deals with porcine pancreatic elastase (Sus scrofa, UniProt P00772). Description: Specificity assay, porcine pancreatic elastase (pNA substrate). To be noted: 1 h enzyme-inhibitor pre-incubation at 30° C., Succ-AAA-pNA; read-out: PPE: concentration required to obtain 50% inhibition in the porcine pancreatic elastase assay. The assay is classed as biochemical.
The mark [3] stands for this setting: IC50: concentration required to obtain 50% inhibition in the NS3 protease/NS4A cofactor peptide radiometric assay, enzyme:cofactor 1:100, 40 min at 23° C.

Each structure is given as a SMILES string. Like-named read-outs stand apart in the source and are kept apart here.

With `CCCN(NC(=O)[C@@H]1C[C@@H](OCc2ccccc2)CN1C(=O)[C@@H](NC(=O)[C@@H](NC(=O)[C@@H](CCC(=O)O)NC(=O)[C@H](CC(=O)O)NC(C)=O)[C@@H](C)CC)C(C)C)C(=O)N[C@H](C)c1ccccc1` [Compound 204], the IC50 in assay [1] worked out at 4200 nM.

Take `CCCN(NC(=O)[C@@H]1C[C@@H](OCc2ccccc2)CN1C(=O)[C@@H](NC(=O)[C@@H](NC(=O)[C@@H](CCC(=O)O)NC(=O)[C@H](CC(=O)O)NC(C)=O)[C@@H](C)CC)C(C)C)C(=O)N[C@@H](C)c1ccccc1` [Compound 205]: the IC50 worked out at 4100 nM in assay [2] and 78 nM in assay [1] (setting [3]).

`CCCCN(NC(=O)[C@@H]1C[C@@H](OCc2ccccc2)CN1C(=O)[C@@H](NC(=O)[C@@H](NC(=O)[C@@H](CCC(=O)O)NC(=O)[C@H](CC(=O)O)NC(C)=O)[C@@H](C)CC)C(C)C)C(=O)N[C@@H](C)c1ccccc1` [Compound 210] gave an IC50 in assay [1] (setting [3]) of 85 nM.

`CC[C@H](C)[C@H](NC(=O)[C@@H](CCC(=O)O)NC(=O)[C@H](CC(=O)O)NC(C)=O)C(=O)N[C@H](C(=O)N1C[C@H](OCc2ccccc2)C[C@H]1C(=O)NN(CC)C(=O)N[C@@H](C)c1ccccc1)C(C)C` [Compound 213]: in assay [1] (setting [3]), the IC50 is 79 nM.

Source of the values: patent publication US6143715A, “Hepatitis C inhibitor peptide analogues” (priority 1998, dated 2000).
